Here are results for one compound from BindingDB's records for 19121582.

Sequences of proteins named here, by UniProt entry; tags and fusion partners are left off. Residues count along the entry.
UniProt P22748, 19-284 limits assumed: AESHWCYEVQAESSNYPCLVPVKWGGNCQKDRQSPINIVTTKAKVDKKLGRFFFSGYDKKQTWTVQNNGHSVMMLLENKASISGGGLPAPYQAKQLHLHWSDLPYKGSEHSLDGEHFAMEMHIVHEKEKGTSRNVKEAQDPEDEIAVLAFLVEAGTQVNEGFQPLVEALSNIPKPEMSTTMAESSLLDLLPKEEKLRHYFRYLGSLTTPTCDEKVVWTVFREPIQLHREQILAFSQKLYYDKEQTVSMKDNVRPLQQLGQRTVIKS

The target in this test is Carbonic anhydrase 4 (Homo sapiens, UniProt P22748).

One may read the Ki as a measure of affinity in units of concentration, obtained from inhibition or displacement. Low readings indicate higher affinity, high ones lower affinity. In turn, `O=[As](O)(O)c1ccccc1` yielded a Ki of 13.9 mM.
